In ChEMBL document CHEMBL2218924, “A broad activity screen in support of a chemogenomic map for kinase signalling research and drug discovery” (Biochem J, 2013):
For part of these data: Shown are results outside the selection of strong results, which stands elsewhere. How the calls were made is not given here. This is a selection; strong and weak results do not stand in their true shares.

The chains behind the UniProt entries cited, without tags or fusion partners. Where a name states a change or a piece, a line headed by the entry shows the natural chain unless it says otherwise.
UniProt P27361, whole entry: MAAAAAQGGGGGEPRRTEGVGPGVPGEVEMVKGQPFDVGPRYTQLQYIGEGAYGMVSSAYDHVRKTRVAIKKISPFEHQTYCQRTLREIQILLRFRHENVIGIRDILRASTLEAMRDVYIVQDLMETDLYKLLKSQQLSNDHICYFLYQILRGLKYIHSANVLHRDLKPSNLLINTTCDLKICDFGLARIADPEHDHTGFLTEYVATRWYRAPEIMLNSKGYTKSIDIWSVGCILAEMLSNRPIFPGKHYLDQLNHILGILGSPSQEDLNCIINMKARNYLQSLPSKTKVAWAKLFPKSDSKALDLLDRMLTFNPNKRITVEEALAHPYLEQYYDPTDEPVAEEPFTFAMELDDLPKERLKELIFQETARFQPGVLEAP
UniProt Q5VT25: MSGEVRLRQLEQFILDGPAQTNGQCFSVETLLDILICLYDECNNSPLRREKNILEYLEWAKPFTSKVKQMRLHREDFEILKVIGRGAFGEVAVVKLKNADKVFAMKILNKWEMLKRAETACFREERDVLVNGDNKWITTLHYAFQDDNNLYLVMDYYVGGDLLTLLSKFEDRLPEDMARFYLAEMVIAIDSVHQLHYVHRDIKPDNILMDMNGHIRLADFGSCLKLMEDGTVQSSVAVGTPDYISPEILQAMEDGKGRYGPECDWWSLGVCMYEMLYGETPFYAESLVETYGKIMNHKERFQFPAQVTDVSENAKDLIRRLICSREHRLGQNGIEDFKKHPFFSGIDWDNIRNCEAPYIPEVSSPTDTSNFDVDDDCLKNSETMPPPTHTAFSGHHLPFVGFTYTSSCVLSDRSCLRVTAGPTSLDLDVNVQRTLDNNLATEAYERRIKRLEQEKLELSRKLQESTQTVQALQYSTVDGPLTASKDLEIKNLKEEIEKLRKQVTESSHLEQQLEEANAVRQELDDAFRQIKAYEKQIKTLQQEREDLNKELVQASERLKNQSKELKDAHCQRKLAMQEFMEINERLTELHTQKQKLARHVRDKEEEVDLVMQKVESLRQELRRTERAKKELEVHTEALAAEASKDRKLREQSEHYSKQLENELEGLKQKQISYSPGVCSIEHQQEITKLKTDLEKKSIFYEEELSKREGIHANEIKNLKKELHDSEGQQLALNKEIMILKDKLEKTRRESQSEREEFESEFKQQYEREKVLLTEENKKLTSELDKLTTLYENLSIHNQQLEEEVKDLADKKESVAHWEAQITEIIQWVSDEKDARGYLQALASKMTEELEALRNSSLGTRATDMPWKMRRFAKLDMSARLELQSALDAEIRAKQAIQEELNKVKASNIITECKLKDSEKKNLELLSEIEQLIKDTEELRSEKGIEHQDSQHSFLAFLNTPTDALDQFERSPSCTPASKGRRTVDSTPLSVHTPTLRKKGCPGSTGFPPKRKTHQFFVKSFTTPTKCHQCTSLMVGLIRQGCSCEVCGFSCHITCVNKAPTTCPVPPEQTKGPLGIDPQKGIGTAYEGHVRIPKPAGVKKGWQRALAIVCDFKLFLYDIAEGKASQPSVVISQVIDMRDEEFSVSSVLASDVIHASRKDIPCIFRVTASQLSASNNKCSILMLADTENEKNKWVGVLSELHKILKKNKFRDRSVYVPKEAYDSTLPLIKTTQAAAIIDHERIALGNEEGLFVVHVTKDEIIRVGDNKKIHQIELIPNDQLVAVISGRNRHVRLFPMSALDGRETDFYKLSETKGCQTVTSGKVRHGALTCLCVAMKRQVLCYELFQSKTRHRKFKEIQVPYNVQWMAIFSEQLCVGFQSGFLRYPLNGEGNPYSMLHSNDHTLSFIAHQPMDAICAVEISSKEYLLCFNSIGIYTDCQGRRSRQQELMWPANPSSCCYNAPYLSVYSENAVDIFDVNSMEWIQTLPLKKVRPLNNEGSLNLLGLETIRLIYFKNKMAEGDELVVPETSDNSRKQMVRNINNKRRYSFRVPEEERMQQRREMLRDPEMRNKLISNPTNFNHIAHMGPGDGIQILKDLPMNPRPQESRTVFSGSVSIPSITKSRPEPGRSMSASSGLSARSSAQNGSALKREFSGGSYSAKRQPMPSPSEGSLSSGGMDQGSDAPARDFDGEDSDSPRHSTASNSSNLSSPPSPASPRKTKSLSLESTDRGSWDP
UniProt Q9Y5S2: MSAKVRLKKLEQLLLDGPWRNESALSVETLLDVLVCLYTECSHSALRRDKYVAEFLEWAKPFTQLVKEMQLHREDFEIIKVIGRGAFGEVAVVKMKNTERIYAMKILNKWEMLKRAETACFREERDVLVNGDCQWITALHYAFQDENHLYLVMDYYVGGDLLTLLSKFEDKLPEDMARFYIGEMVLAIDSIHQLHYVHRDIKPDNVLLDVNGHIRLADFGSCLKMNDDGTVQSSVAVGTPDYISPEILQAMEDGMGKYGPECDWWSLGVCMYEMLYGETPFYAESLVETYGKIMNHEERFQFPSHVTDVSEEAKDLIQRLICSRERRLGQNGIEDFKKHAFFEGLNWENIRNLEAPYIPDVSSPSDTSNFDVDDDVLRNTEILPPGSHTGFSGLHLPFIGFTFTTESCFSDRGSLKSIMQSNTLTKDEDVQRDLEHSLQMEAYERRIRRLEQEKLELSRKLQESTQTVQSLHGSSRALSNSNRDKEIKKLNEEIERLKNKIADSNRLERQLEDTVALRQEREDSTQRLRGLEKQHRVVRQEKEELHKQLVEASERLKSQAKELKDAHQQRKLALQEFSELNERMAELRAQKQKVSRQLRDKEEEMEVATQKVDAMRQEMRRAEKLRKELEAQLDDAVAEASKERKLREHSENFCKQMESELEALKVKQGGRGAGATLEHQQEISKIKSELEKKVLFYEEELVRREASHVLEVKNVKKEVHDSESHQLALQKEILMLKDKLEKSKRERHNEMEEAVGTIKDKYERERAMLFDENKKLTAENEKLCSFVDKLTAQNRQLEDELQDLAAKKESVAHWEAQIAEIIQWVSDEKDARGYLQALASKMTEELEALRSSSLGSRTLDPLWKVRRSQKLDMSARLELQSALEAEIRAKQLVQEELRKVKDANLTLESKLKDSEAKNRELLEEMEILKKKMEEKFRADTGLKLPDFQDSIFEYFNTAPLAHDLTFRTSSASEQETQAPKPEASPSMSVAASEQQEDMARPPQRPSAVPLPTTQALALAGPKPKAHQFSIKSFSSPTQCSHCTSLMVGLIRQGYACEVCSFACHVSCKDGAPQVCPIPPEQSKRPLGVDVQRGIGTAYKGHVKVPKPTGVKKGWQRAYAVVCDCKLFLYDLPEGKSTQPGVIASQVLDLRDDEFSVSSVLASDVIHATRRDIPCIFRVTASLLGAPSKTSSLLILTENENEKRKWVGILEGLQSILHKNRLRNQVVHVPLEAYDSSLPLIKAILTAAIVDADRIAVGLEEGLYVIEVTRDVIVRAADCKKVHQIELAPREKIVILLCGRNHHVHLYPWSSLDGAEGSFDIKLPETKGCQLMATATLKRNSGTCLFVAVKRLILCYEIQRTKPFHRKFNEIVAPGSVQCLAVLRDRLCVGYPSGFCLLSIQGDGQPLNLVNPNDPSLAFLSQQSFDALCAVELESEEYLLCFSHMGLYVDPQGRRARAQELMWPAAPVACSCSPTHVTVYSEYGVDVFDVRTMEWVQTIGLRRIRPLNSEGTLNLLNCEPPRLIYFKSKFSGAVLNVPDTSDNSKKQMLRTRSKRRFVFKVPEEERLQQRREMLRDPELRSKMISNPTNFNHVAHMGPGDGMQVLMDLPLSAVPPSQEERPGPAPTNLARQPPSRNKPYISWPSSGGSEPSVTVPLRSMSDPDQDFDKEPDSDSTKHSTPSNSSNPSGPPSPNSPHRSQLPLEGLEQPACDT
UniProt P51956: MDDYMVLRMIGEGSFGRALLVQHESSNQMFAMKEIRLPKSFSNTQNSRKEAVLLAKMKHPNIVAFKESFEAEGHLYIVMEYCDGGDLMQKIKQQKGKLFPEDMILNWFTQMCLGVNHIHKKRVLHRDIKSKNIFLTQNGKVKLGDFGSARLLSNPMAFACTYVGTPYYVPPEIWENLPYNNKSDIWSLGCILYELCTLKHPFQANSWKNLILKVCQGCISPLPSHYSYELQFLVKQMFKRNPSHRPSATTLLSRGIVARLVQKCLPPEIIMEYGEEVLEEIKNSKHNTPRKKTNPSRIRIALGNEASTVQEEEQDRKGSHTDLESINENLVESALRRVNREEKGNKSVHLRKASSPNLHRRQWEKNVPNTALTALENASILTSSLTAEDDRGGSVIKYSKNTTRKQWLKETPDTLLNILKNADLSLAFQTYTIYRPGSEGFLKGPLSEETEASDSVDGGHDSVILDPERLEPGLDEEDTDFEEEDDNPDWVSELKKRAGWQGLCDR
UniProt Q86Y07: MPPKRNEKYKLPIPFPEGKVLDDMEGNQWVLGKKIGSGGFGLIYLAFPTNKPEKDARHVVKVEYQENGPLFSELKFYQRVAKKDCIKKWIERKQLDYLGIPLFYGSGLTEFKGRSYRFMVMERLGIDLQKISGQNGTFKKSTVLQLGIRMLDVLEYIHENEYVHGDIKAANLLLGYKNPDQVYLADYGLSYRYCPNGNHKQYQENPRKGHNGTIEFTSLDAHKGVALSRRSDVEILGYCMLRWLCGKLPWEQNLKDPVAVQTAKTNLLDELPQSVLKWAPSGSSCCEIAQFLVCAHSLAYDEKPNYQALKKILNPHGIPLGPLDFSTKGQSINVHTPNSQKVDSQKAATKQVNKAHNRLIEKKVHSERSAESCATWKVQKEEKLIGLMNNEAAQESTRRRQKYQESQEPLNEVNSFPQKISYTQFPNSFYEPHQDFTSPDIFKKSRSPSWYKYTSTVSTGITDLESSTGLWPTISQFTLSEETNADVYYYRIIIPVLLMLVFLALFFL
UniProt Q13177, whole entry: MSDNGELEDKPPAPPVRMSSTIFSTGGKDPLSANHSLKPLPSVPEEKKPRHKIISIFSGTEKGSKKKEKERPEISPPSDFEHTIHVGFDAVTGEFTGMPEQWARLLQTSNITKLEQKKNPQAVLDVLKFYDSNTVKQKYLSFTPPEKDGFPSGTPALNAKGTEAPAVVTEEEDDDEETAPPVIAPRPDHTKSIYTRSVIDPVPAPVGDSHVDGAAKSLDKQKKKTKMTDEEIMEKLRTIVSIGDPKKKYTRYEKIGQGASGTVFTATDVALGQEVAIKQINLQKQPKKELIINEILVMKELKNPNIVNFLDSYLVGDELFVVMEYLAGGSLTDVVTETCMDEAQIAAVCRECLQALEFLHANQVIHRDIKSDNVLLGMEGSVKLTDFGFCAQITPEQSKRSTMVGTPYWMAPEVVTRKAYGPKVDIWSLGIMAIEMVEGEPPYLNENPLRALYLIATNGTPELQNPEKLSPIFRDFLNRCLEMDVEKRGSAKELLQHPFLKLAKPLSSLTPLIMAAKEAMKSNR
UniProt P31749: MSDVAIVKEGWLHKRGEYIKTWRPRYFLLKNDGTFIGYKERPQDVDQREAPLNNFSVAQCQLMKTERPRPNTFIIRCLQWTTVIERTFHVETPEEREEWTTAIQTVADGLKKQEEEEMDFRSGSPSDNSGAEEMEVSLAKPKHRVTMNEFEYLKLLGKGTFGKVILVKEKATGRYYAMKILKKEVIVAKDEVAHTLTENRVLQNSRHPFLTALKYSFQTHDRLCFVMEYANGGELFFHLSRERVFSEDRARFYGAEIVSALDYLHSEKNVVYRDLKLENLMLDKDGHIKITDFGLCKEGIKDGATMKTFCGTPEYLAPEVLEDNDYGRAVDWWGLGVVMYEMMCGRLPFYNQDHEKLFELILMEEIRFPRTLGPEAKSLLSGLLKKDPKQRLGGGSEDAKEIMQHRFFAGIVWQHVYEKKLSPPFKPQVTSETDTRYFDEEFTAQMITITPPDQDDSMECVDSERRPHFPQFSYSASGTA
UniProt Q05655: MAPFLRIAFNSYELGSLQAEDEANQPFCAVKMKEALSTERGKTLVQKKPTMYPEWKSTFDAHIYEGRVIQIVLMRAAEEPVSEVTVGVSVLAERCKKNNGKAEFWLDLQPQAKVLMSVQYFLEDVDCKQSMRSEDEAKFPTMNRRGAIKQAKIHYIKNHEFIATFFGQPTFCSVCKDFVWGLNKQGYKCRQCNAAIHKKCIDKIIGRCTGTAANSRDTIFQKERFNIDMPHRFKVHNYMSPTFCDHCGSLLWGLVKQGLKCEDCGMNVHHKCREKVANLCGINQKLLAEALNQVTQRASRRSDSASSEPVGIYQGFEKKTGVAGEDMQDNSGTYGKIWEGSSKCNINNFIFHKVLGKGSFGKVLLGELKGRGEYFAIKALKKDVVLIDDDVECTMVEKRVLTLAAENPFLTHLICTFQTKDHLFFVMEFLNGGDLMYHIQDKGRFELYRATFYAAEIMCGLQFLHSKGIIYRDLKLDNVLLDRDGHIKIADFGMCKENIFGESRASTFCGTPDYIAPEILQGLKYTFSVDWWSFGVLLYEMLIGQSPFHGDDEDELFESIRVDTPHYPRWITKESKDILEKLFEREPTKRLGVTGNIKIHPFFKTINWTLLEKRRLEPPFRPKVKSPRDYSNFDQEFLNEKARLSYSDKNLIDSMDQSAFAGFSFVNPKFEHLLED

Key:
[1] = target: T1, Serine/threonine-protein kinase TAO2 (Homo sapiens) (UniProt Q9UL54); settings: at 1 µM
T1 sequence (whole entry): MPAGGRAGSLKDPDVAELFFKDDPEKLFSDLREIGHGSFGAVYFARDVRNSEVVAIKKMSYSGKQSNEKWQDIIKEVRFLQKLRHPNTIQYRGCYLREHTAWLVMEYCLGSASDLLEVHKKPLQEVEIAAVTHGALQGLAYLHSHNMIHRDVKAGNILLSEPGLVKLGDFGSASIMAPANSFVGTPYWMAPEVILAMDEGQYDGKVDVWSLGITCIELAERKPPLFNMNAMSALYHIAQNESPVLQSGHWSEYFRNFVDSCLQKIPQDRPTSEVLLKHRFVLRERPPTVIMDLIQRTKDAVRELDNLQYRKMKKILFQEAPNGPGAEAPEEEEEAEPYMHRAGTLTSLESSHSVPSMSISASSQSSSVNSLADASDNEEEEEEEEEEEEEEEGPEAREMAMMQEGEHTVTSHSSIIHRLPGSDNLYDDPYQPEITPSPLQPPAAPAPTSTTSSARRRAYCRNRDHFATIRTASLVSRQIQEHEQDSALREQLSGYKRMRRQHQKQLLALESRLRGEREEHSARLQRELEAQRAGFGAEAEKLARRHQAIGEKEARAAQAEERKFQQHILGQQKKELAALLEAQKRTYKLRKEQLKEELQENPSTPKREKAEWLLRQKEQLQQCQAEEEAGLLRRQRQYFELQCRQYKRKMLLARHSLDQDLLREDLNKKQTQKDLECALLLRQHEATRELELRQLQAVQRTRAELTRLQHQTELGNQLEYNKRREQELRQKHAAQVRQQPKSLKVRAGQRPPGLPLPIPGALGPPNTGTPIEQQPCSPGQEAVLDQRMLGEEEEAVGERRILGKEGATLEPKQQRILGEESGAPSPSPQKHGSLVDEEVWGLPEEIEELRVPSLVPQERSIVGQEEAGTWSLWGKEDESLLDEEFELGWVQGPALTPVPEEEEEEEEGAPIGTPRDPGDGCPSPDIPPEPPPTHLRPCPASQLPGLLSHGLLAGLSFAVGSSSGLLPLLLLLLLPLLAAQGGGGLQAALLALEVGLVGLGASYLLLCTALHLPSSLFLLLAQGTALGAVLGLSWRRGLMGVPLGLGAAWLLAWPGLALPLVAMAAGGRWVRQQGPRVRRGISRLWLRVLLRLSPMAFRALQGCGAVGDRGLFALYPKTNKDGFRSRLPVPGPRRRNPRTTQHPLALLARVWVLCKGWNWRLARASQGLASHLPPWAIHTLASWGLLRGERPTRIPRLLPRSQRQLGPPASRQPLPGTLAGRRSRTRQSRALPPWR

[2] = target: T2, TGF-beta receptor type-1 (Homo sapiens) (UniProt P36897); settings: at 10 µM
T2 sequence (whole entry): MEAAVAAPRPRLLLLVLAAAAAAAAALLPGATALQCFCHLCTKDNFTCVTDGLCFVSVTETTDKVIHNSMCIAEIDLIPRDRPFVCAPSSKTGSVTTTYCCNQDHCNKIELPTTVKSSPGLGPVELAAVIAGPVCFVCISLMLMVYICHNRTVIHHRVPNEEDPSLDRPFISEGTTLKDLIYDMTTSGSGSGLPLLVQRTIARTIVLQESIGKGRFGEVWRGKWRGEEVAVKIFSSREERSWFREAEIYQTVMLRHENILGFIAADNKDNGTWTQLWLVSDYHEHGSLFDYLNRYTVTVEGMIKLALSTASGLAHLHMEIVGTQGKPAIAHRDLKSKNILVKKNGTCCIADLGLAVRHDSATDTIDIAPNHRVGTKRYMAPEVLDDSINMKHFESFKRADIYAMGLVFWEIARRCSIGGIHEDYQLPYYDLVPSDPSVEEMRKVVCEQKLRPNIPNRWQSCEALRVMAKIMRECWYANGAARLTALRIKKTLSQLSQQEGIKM

[3] = target: Inhibitor of nuclear factor kappa-B kinase subunit beta (Homo sapiens) (UniProt O14920); settings: at 10 µM
[4] = target: Mitogen-activated protein kinase 9 (Homo sapiens) (UniProt P45984); settings: at 10 µM
[5] = target: T3, Serine/threonine-protein kinase STK11 (Homo sapiens) (UniProt Q15831); settings: at 1 µM
T3 sequence (whole entry): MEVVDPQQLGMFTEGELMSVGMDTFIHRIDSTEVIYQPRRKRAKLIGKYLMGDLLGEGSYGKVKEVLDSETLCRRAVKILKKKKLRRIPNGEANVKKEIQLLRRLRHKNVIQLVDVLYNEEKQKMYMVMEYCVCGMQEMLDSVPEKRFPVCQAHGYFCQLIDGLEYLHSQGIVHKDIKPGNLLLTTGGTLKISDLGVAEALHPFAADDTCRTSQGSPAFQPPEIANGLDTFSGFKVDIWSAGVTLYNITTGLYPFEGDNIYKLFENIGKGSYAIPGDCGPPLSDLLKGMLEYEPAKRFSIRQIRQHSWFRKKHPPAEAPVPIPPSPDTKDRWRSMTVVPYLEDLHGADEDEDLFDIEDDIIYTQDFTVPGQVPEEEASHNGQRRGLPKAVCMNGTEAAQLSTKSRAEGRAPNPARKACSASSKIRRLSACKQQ

[6] = target: T3, Serine/threonine-protein kinase STK11 (Homo sapiens); settings: at 10 µM
[7] = target: Mitogen-activated protein kinase 3 (Homo sapiens) (UniProt P27361); settings: at 1 µM
[8] = target: Mitogen-activated protein kinase 1 (Homo sapiens) (UniProt P28482); settings: at 1 µM
[9] = target: Mitogen-activated protein kinase 1 (Homo sapiens) (UniProt P28482); settings: at 10 µM
[10] = target: MAP kinase-activated protein kinase 2 (Homo sapiens) (UniProt P49137); settings: at 10 µM
[11] = target: Serine/threonine-protein kinase MRCK alpha (Homo sapiens) (UniProt Q5VT25); settings: at 1 µM
[12] = target: Serine/threonine-protein kinase MRCK beta (Homo sapiens) (UniProt Q9Y5S2); settings: at 1 µM
[13] = target: Serine/threonine-protein kinase MRCK beta (Homo sapiens) (UniProt Q9Y5S2); settings: at 10 µM
[14] = target: Serine/threonine-protein kinase Nek3 (Homo sapiens) (UniProt P51956); settings: at 1 µM;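 further: residual NEK3 kinase activity given as percent of control, assayed in 8 mM MOPS buffer pH 7.0 containing 0.2 mM EDTA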
[15] = target: Serine/threonine-protein kinase VRK2 (Homo sapiens) (UniProt Q86Y07); settings: at 1 µM;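 further: remaining VRK2 kinase activity expressed as percent of uninhibited control, measured in MOPS buffer at pH 7.0 containing EDTA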
[16] = target: Serine/threonine-protein kinase WNK3 (Homo sapiens) (UniProt Q9BYP7); settings: at 1 µM;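 further: remaining kinase activity expressed versus control, assayed in 8 mM MOPS buffer pH 7.0 with 0.2 mM EDTA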
[17] = target: RAF proto-oncogene serine/threonine-protein kinase (Homo sapiens) (UniProt P04049); settings: at 1 µM
[18] = target: RAF proto-oncogene serine/threonine-protein kinase (Homo sapiens) (UniProt P04049); settings: at 10 µM
[19] = target: Serine/threonine-protein kinase mTOR (Homo sapiens) (UniProt P42345); settings: at 10 µM
[20] = target: T4, Serine/threonine-protein kinase Nek6 (Homo sapiens) (UniProt Q9HC98); settings: at 1 µM
T4 sequence (whole entry): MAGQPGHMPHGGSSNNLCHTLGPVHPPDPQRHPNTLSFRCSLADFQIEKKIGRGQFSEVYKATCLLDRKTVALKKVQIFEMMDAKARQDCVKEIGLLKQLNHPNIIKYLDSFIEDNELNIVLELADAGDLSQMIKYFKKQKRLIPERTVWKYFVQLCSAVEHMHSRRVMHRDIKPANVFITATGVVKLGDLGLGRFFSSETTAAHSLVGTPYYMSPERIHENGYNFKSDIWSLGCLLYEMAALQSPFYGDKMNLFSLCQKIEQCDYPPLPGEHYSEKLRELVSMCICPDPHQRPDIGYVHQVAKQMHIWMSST

[21] = target: T4, Serine/threonine-protein kinase Nek6 (Homo sapiens); settings: at 10 µM
[22] = target: T5, Serine/threonine-protein kinase NLK (Homo sapiens) (UniProt Q9UBE8); settings: at 1 µM
T5 sequence (whole entry): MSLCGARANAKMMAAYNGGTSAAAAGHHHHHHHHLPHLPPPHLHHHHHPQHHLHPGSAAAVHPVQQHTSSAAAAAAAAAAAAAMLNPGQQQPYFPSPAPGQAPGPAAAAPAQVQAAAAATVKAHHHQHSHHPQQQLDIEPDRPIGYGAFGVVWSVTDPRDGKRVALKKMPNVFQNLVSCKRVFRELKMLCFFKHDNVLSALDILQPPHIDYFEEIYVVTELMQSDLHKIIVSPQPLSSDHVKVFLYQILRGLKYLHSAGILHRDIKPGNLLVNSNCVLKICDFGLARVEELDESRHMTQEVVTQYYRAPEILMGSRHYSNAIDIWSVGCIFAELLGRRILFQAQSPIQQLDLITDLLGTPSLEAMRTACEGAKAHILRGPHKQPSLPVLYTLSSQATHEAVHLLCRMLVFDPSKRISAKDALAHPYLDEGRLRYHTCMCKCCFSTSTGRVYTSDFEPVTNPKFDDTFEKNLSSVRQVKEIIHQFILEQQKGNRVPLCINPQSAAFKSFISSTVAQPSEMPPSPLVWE

[23] = target: T5, Serine/threonine-protein kinase NLK (Homo sapiens); settings: at 10 µM
[24] = target: Serine/threonine-protein kinase PAK 2 (Homo sapiens) (UniProt Q13177); settings: at 1 µM
[25] = target: cAMP-dependent protein kinase catalytic subunit alpha (Homo sapiens) (UniProt P17612); settings: at 10 µM
[26] = target: RAC-alpha serine/threonine-protein kinase (Homo sapiens) (UniProt P31749); settings: at 1 µM
[27] = target: Protein kinase C beta type (Homo sapiens) (UniProt P05771); settings: at 1 µM
[28] = target: Protein kinase C beta type (Homo sapiens) (UniProt P05771); settings: at 10 µM
[29] = target: Protein kinase C delta type (Homo sapiens) (UniProt Q05655); settings: at 1 µM
[30] = target: T6, Protein kinase C epsilon type (Homo sapiens) (UniProt Q02156); settings: at 10 µM
T6 sequence (whole entry): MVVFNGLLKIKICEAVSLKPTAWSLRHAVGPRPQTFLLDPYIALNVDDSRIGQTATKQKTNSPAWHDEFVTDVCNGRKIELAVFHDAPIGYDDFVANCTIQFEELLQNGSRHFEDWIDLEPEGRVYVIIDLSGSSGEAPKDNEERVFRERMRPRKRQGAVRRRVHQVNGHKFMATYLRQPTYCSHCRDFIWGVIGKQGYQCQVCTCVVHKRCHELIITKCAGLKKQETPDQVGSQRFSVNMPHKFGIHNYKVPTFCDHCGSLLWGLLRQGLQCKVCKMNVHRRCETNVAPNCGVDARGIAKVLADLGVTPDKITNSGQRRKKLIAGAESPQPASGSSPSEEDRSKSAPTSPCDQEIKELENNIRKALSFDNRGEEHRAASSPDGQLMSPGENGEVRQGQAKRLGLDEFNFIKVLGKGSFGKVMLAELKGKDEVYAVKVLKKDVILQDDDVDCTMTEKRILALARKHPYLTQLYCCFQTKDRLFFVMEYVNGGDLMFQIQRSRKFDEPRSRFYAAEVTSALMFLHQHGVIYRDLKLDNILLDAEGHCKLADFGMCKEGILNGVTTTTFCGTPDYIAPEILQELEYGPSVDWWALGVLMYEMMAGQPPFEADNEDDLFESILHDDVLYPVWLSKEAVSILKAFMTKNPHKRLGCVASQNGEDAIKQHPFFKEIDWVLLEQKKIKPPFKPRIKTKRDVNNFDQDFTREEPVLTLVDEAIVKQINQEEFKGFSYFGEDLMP

## CCN(CC)CCNC(=O)c1c(C)[nH]c(/C=C2\C(=O)Nc3ccc(Cl)cc32)c1C
[1]
  residual activity: 89%
[2]
  residual activity: 83%
[3]
  residual activity: 79%
[4]
  residual activity: 95%
[5]
  residual activity: 98%
[6]
  residual activity: 86%
[7]
  residual activity: 91%
[8]
  residual activity: 97%
[9]
  residual activity: 91%
[10]
  residual activity: 86%
[11]
  residual activity: 118%
[12]
  residual activity: 103%
[13]
  residual activity: 91%
[14]
  residual activity: 111%
[15]
  residual activity: inactive: 108%
[16]
  residual activity: inactive: 94%
[17]
  residual activity: 97%
[18]
  residual activity: 102%
[19]
  residual activity: 102%
[20]
  residual activity: inactive: 91%
[21]
  residual activity: 96%
[22]
  residual activity: 102%
[23]
  residual activity: 86%
[24]
  residual activity: 110%
[25]
  residual activity: 93%
[26]
  residual activity: 99%
[27]
  residual activity: 105%
[28]
  residual activity: 94%
[29]
  residual activity: 95%
[30]
  residual activity: 108%
